The record followed here is ChEMBL document CHEMBL1140914, “Synthesis and in vitro and in vivo evaluation of 18F-labeled positron emission tomography (PET) ligands for imaging the vesicular acetylcholine transporter” (J Med Chem, 2009).

The structures appear in SMILES notation.

Data set [1] is described as follows: Ratio of drug uptake in striatum to blood in Sprague-Dawley rat at 25 to 35 uCi, iv after 5 mins postinjection by autoradiography. In kind it is ADME, organism-based. To be noted: in vivo.
A short description of data set [2]: Ratio of drug uptake in striatum to blood in Sprague-Dawley rat at 25 to 35 uCi, iv after 30 mins postinjection by autoradiography. It is filed as ADME, organism-based. To be noted: in vivo, 0.5 h.
Data set [3] in a line: Ratio of drug uptake in striatum to blood in Sprague-Dawley rat at 25 to 35 uCi, iv after 1 hr postinjection by autoradiography. It is filed as ADME, organism-based. Particulars: in vivo.
Data set [4] in a line: Ratio of drug uptake in striatum to blood in Sprague-Dawley rat at 25 to 35 uCi, iv after 2 hrs postinjection by autoradiography. In kind it is ADME, organism-based. Particulars: in vivo.
A short description of data set [5]: Ratio of drug uptake in striatum to cortex in Sprague-Dawley rat at 25 to 35 uCi, iv after 5 mins postinjection by autoradiography. In kind it is ADME, organism-based. To be noted: in vivo.
A short description of data set [6]: Ratio of drug uptake in striatum to cortex in Sprague-Dawley rat at 25 to 35 uCi, iv after 30 mins postinjection by autoradiography. It is filed as ADME, organism-based. To be noted: in vivo, 0.5 h.
Data set [7] in a line: Ratio of drug uptake in striatum to hippocampus in Sprague-Dawley rat at 25 to 35 uCi, iv after 30 mins postinjection by autoradiography. It is filed as ADME, organism-based. Particulars: in vivo, 0.5 h.
Data set [8] in a line: Ratio of drug uptake in striatum to hippocampus in Sprague-Dawley rat at 25 to 35 uCi, iv after 1 hr postinjection by autoradiography. To be noted: in vivo. In kind it is ADME, organism-based.
A short description of data set [9]: Ratio of drug uptake in striatum to hippocampus in Sprague-Dawley rat at 25 to 35 uCi, iv after 2 hrs postinjection by autoradiography. In kind it is ADME, organism-based. To be noted: in vivo.
The nature of data set [10]: Ratio of drug uptake in striatum to cerebellum in Sprague-Dawley rat at 25 to 35 uCi, iv after 5 mins postinjection by autoradiography. In kind it is ADME, organism-based. Particulars: in vivo.
Data set [11] can be described thus: Ratio of drug uptake in striatum to cerebellum in Sprague-Dawley rat at 25 to 35 uCi, iv after 30 mins postinjection by autoradiography. In kind it is ADME, organism-based. To be noted: in vivo, 0.5 h.
Data set [12] can be described thus: Ratio of drug uptake in striatum to cerebellum in Sprague-Dawley rat at 25 to 35 uCi, iv after 1 hr postinjection by autoradiography. In kind it is ADME, organism-based. To be noted: in vivo.
A short description of data set [13]: Ratio of drug uptake in striatum to cerebellum in Sprague-Dawley rat at 25 to 35 uCi, iv after 2 hrs postinjection by autoradiography. It is filed as ADME, organism-based. To be noted: in vivo.
Data set [14] is described as follows: Ratio of drug uptake in striatum to total brain in Sprague-Dawley rat at 25 to 35 uCi, iv after 5 mins postinjection by autoradiography. It is filed as ADME, organism-based. To be noted: in vivo.
A short description of data set [15]: Ratio of drug uptake in striatum to total brain in Sprague-Dawley rat at 25 to 35 uCi, iv after 30 mins postinjection by autoradiography. In kind it is ADME, organism-based. Particulars: in vivo, 0.5 h.
A short description of data set [16]: Ratio of drug uptake in striatum to total brain in Sprague-Dawley rat at 25 to 35 uCi, iv after 1 hr postinjection by autoradiography. In kind it is ADME, organism-based. Particulars: in vivo.
Data set [17] can be described thus: Ratio of drug uptake in striatum to total brain in Sprague-Dawley rat at 25 to 35 uCi, iv after 2 hrs postinjection by autoradiography. It is filed as ADME, organism-based. To be noted: in vivo.
A short description of data set [18]: Ratio of drug uptake in striatum to cerebellum in iv dosed rhesus monkey after 2 hrs postinjection by microPET imaging analysis. It is filed as ADME, organism-based, Macaca mulatta. Particulars: in vivo.
The nature of data set [19]: Ratio of drug uptake in striatum to cortex in Sprague-Dawley rat at 25 to 35 uCi, iv after 1 hr postinjection by autoradiography. Particulars: in vivo. It is filed as ADME, organism-based.
A short description of data set [20]: Ratio of drug uptake in striatum to cortex in Sprague-Dawley rat at 25 to 35 uCi, iv after 2 hrs postinjection by autoradiography. It is filed as ADME, organism-based. Particulars: in vivo.
A short description of data set [21]: Ratio of drug uptake in striatum to hippocampus in Sprague-Dawley rat at 25 to 35 uCi, iv after 5 mins postinjection by autoradiography. It is filed as ADME, organism-based. To be noted: in vivo.

Turning to `O=C(c1ccc([18F])cc1)C1CCN([C@@H]2Cc3ccccc3C[C@H]2O)CC1` (stereo in doubt; (-)), the Ratio turned out to be 12.55 in data set [1]; 8.86 in [2]; 5.97 in data set [3]; 5.17 in data set [4]; 1 in [5]; 1.39 in data set [6]. The Ratio is given as 1.36 in data set [7]; 1.35 in data set [8]; 1.11 in data set [9]; 1.23 in data set [10]; 1.85 in data set [11]; 1.64 in data set [12]. Moreover, the Ratio in data set [13] worked out at 1.32; in data set [14], 1.11; in [15] it was 1.44; in data set [16] it was 1.38; in [17] it was 1.08; in data set [18], 2.1. Besides, the Ratio in [19] turned out to be 1.36; in data set [20], 1.09; in [21] it was 1.09.

Take `O=C(c1ccc([18F])cc1)C1CCN([C@@H]2Cc3ccccc3C[C@H]2O)CC1` (stereo in doubt; (+)): the Ratio in data set [1] was 2.67; in data set [2], 0.95; in data set [3] it was 0.9; in data set [4], 0.87; in data set [5], 0.92; in data set [6] it was 1.08. Also, the Ratio in [7] is listed as 0.93; in data set [8], 0.98; in [9], 0.99; in data set [10], 1.15; in data set [11], 1.3; in data set [12], 1.17. Besides, the Ratio in data set [13] is on record as 1.14; in [14], 1.02; in data set [15], 1.13; in data set [16] it was 1.02; in [17], 1.04; in [19], 0.95. In addition, the Ratio came out at 0.91 in [20] and 0.99 in data set [21].
